Assay results: PMC10318456, “Selective inhibitors of the PSEN1–gamma-secretase complex” (The Journal of Biological Chemistry, 2023)

Legend:
[1] = target: PSEN1-APH1B γ-secretase complex (Homo sapiens, UniProt P49768); experiment: Aβ40 secretion by MEF cell line expressing only PSEN1-APH1B γ-secretase (APP-C99-GFP reporter); type: cell-based
[2] = tested on: PSEN1 versus PSEN2 γ-secretase complexes; experiment: Comparison of the four MEF cell lines: selectivity between γ-secretase complexes (IC50 ratios); type: cell-based, human
[3] = target: PSEN1 WT–APH1A γ-secretase complex (Homo sapiens, UniProt P49768); experiment: Aβ40 secretion, MEF cell pool restored with PSEN1 WT–APH1A; conditions: decimal comma
[4] = target: PSEN1 M146A–APH1A γ-secretase complex (Homo sapiens, UniProt P49768, M146A); experiment: Aβ40 secretion, MEF cell pool restored with PSEN1 M146A–APH1A; conditions: decimal comma
[5] = target: PSEN1 T147A–APH1A γ-secretase complex (Homo sapiens, UniProt P49768, T147A); experiment: Aβ40 secretion, MEF cell pool restored with PSEN1 T147A–APH1A; conditions: read-out: IC50 μM (95% CI μM), Aβ40 secretion; PSEN1 T147A (TM2)–APH1A cell pool; N = 3 to 4; mean (95% CI); decimal comma
[6] = target: PSEN1 W165A–APH1A γ-secretase complex (Homo sapiens, UniProt P49768, W165A); experiment: Aβ40 secretion, MEF cell pool restored with PSEN1 W165A–APH1A; conditions: decimal comma
[7] = target: PSEN1 I168A–APH1A γ-secretase complex (Homo sapiens, UniProt P49768, I168A); experiment: Aβ40 secretion, MEF cell pool restored with PSEN1 I168A–APH1A; conditions: decimal comma
[8] = target: PSEN1 S169A–APH1A γ-secretase complex (Homo sapiens, UniProt P49768, S169A); experiment: Aβ40 secretion, MEF cell pool restored with PSEN1 S169A–APH1A; conditions: decimal comma
[9] = target: PSEN1 L172A–APH1A γ-secretase complex (Homo sapiens, UniProt P49768, L172A); experiment: Aβ40 secretion, MEF cell pool restored with PSEN1 L172A–APH1A
[10] = target: PSEN1 L173A–APH1A γ-secretase complex (Homo sapiens, UniProt P49768, L173A); experiment: Aβ40 secretion, MEF cell pool restored with PSEN1 L173A–APH1A; conditions: decimal comma
[11] = target: PSEN1 I229A–APH1A γ-secretase complex (Homo sapiens, UniProt P49768, I229A); experiment: Aβ40 secretion, MEF cell pool restored with PSEN1 I229A–APH1A; conditions: decimal comma
[12] = target: PSEN1 M233A–APH1A γ-secretase complex (Homo sapiens, UniProt P49768, M233A); experiment: Aβ40 secretion, MEF cell pool restored with PSEN1 M233A–APH1A; conditions: decimal comma
[13] = target: PSEN1 I387A–APH1A γ-secretase complex (Homo sapiens, UniProt P49768, I387A); experiment: Aβ40 secretion, MEF cell pool restored with PSEN1 I387A–APH1A; conditions: decimal comma
[14] = target: PSEN1 F388A–APH1A γ-secretase complex (Homo sapiens, UniProt P49768, F388A); experiment: Aβ40 secretion, MEF cell pool restored with PSEN1 F388A–APH1A; conditions: decimal comma

O=S(=O)(c1ccc(Cl)cc1)C1(c2cc(F)ccc2F)CCCCC1
fold less potency for PSEN1–APH1B ([1]; compared with MRK-560): 60 fold | IC50 ([1]; read-out: IC50, Aβ40 peptides, MEF PSEN1-APH1B cell line, 8 h, Beerse site unless otherwise indicated): 25.8 nM | selectivity for PSEN1 complexes versus PSEN2 complexes [2]: 11–41 fold

CC(C)C[C@H](NC(=O)[C@H](Cc1ccccc1)C[C@@H](O)[C@H](Cc1ccccc1)NC(=O)OC(C)(C)C)C(=O)N[C@@H](Cc1ccccc1)C(=O)O (single isomer, unassigned)
IC50 fold change to WT ([3]; PSEN1 WT–APH1A cell pool (reference)): 1 fold | IC50 ([3]; read-out: IC50 μM (95% CI μM), Aβ40 secretion, PSEN1 WT–APH1A cell pool, N = 3 to 4, mean (95% CI)): 0.47 µM | IC50 fold change to WT ([4]; PSEN1 M146A–APH1A cell pool): 1,941 fold | IC50 ([4]; read-out: IC50 μM (95% CI μM), Aβ40 secretion, PSEN1 M146A (TM2)–APH1A cell pool, N = 3 to 4, mean (95% CI)): 0.913 µM | IC50 [5]: 27.9 µM | IC50 fold change to WT ([6]; PSEN1 W165A–APH1A cell pool): 1,607 fold | IC50 ([6]; read-out: IC50 μM (95% CI μM), Aβ40 secretion, PSEN1 W165A (TM3)–APH1A cell pool, N = 3 to 4, mean (95% CI)): 0.755 µM | IC50 fold change to WT ([7]; PSEN1 I168A–APH1A cell pool): 0,671 fold | IC50 ([7]; read-out: IC50 μM (95% CI μM), Aβ40 secretion, PSEN1 I168A (TM3)–APH1A cell pool, N = 3 to 4, mean (95% CI)): 0.315 µM | IC50 fold change to WT ([8]; PSEN1 S169A–APH1A cell pool): 0,978 fold | IC50 ([8]; read-out: IC50 μM (95% CI μM), Aβ40 secretion, PSEN1 S169A (TM3)–APH1A cell pool, N = 3 to 4, mean (95% CI)): 0.46 µM | increase in binding affinity by alanine substitution of L172 ([9]; PSEN1 L172A versus WT): 1.5 fold | IC50 fold change to WT ([9]; PSEN1 L172A–APH1A cell pool, decimal comma): 0,640 fold | IC50 ([9]; read-out: IC50 μM (95% CI μM), Aβ40 secretion, PSEN1 L172A (TM3)–APH1A cell pool, N = 3 to 4, mean (95% CI), decimal comma): 0.301 µM | IC50 fold change to WT ([10]; PSEN1 L173A–APH1A cell pool): 2,399 fold | IC50 ([10]; read-out: IC50 μM (95% CI μM), Aβ40 secretion, PSEN1 L173A (TM3)–APH1A cell pool, N = 3 to 4, mean (95% CI)): 1.13 µM | IC50 fold change to WT [11]: 2,880 fold | IC50 fold change to WT ([12]; PSEN1 M233A–APH1A cell pool): 0,955 fold | IC50 ([12]; read-out: IC50 μM (95% CI μM), Aβ40 secretion, PSEN1 M233A (TM5)–APH1A cell pool, N = 3 to 4, mean (95% CI)): 0.449 µM | IC50 fold change to WT ([13]; PSEN1 I387A–APH1A cell pool): 1,584 fold | IC50 ([13]; read-out: IC50 μM (95% CI μM), Aβ40 secretion, PSEN1 I387A (TM7)–APH1A cell pool, N = 3 to 4, mean (95% CI)): 0.745 µM | IC50 fold change to WT ([14]; PSEN1 F388A–APH1A cell pool): 1,782 fold | IC50 ([14]; read-out: IC50 μM (95% CI μM), Aβ40 secretion, PSEN1 F388A (TM7)–APH1A cell pool, N = 3 to 4, mean (95% CI)): 0.838 µM
